Protein sequences, listed by entry. Tags and fused reporters are not part of them. Lines headed by an entry give the natural chain unless they say otherwise; changes in a name come on top.
UniProt P32300, whole entry: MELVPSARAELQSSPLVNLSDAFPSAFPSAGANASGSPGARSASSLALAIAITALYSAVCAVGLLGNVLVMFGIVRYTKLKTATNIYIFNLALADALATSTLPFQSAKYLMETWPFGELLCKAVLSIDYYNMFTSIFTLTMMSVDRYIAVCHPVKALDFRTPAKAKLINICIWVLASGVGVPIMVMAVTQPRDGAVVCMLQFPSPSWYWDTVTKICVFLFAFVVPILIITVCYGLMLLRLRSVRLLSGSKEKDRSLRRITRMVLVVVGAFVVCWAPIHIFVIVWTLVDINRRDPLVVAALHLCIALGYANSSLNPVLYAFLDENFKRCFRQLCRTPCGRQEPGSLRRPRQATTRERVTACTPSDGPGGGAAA

According to patent US5578725A, “Delta opioid receptor antagonists” (priority 1995, dated 1996):

What was measured:
[1] = target: δ1 (Mus musculus, UniProt P32300); settings: tail flick, mice
[2] = target: T1, δ2 (Mus musculus, UniProt P32300); assay: Tail-flick assay, antagonism of DSLET (δ2) antinociception; format: in vivo, male Swiss-Webster mice; settings: mice
T1 construct: male Swiss-Webster mice; from tissue; host or cells: living mouse (male Swiss-Webster)

Substance	Control ED50 (95% C.L.) ([1]; DPDPE i.c.v., no antagonist)	Peak antinociceptive activity time ([1]; agonist)	Control ED50 (95% C.L.) ([2]; DSLET i.c.v., no antagonist)	Peak antinociceptive activity time ([2]; agonist)
[D-Pen^2 -D-Pen^5 ]enkephalin [DPDPE, reference compound]	8.6 (6.5-11.1) nmol	20 min	–	–
[D-Ser^2 -Leu^5 ]enkephalin-Thr^6 [DSLET, reference compound]	–	–	0.7 (0.3-1.0) nmol	10 min
